In ChEMBL document CHEMBL3271943, “P-Aminobenzoic acid derivatives. Mode of action and structure-activity relationships in a cell-free system (Escherichia coli)” (J Med Chem, 1977) one finds logP data, which are given here for one compound.

The nature of the data set: Partition coefficient, log P of the compound. It counts as physicochemical. Particulars: octanol/water.

With `Nc1ccc(C(=O)O)cc1` [AMINOBENZOIC ACID], the logP turned out to be 0.83.

As a reminder, the logP is the decadic logarithm of the partition coefficient of the neutral form, usually between octanol and water.
